From patent US7528234B2, “Process for the preparation of doxorubicin conjugates with lactosaminated human albumin” (priority 2004, dated 2009)

Tests used:
[1] = Solubility of freeze-dried conjugate in 0.9% NaCl; type: physicochemical; settings: after freeze-drying
Method: The procedure described in detail in “Materials and Methods” yielded reproducible results. In twenty preparations of L-HSA-DOXO, the drug/“carrier” molar ratio (MR) varied from 5 to 6.5. After freeze-drying, these preparations were readily dissolved in 0.9% NaCl at a concentration of 2 mg of DOXO conjugate/ml (corresponding to 40-55 mg of conjugate/ml), yielding clear solutions.

[2] = Release of conjugated drug on incubation at pH 2 (HPLC); type: physicochemical; settings: pH 2, 30 min
[3] = Stability of the bond between DOXO and L-HSA in mouse plasma in vitro; type: in vitro ADME; settings: incubated 2 h at 37° C. in mouse plasma
Method: (§1) The stability of the bond between DOXO and L-HSA in mouse plasma in vitro and the distribution of free DOXO (released from the “carrier”) in the organs of the mice injected with the conjugate were studied as described in Di Stefano et al. (Di Stefano G, et al. “Doxorubicin coupled to lactosaminated human albumin . . . ” Dig Liver Dis 2003, 35: 428-33).
(§2) This dose of conjugate corresponded a 1 μg/g of DOXO, which is a therapeutically effective dose.

[4] = Distribution of free DOXO in the organs of mice injected with the conjugate; type: in vivo, mouse; settings: intravenous 24 μg/g of conjugate (1 μg/g of DOXO), different times (FIG. 1)
Source text: Female Swiss mice weighing 26-30 g were used. They were obtained from Harlan Italy (Udine) and were kept in the animal house at the Department of Experimental Pathology of the University of Bologna. The experimental protocols were approved by the University of Bologna's ethics committee.
as §1, §2

Substance: L-HSA-DOXO
- concentration at which freeze-dried preparations readily dissolved, yielding clear solutions [1]: 2 mg of DOXO conjugate/ml
- corresponding conjugate concentration readily dissolved [1]: 40-55 mg of conjugate/ml
- release of conjugated drug at acidic pH [2]: released all the conjugated drug
- release of drug in mouse plasma [3]: did not release a measurable quantity of drug
- concentrations of free DOXO in the liver versus other organs [4]: quite a number of times higher than those measured in the other organs
